Laboratory results from patent publication US20070048252A1, “Conjugates of the hydrophilic polymer and the molecules from boxwood extraction, and pharmaceutical compositions of the conjugates” (Beijingn Jenkem Technology CO., Ltd., priority 2003, published 2007).

Tested on: Kunming strain mice
Assay: Acute toxicity study, single IV or IP injection, 14 days observation
Type: in vivo
Description: The conjugate obtained from example 8 was used as the testing reagent in the following study, while native Cyclovirobuxine D was used as positive control. Both samples were dissolved in sodium acetate (pH 5.7) before injection.
Kunming strain mice, 50% male and 50% formale, weighing 19-21 g, were randomly divided into 5 groups in the study. (1) native Cyclovirobuxine D, (2) the conjugate of PEG and Cyclovirobuxine D. The mice were fasted 12 hours before the injections. Each mice was given a single injection, and the volume for both IV and IP injection was based on 0.3 ml/10 g formulation. […] After 14 days, the mice still alive were executed and then analyzed.

“α-methoxy-polyethylene-glycol-ω-glu-glu-gly-Cyclovirobuxine D ester [Example 8]” was tested, and the “LD50 in IP injection” value (single IP injection) was 144.98 mg/kg and the “LD50 in IV injection” value (single IV injection) was 35.50 mg/kg.
